Values of other authors, collected in PMC5962642, “Dynamic imaging of adaptive stress response pathway activation for prediction of drug induced liver injury” (Archives of Toxicology, 2018).

Conditions: ref Chen et al. [2016], cited from earlier work

Substance: Neomycin
- DILI con. (DILI-concern labeling) (FDA DILI labeling): No-DC
- Hepa. (hepatotoxicity class) (FDA labeling in eight classes of hepatotoxicity): 1
